scFv variants of Ab-14 (light chain) against a SARS-CoV-2 spike peptide

Reference: Li et al. 2023, doi:10.1038/s41467-023-39022-2. File: FLAb, binding data.

All variants were tested on one target, the spike HR2 peptide PDVDLGDISGINAS (SARS-CoV-2).

Parent: Ab-14, a human scFv built as VH, the linker GGGGSGGGGSGGGGS, VL. Only the CDRs of the light chain vary.
VH: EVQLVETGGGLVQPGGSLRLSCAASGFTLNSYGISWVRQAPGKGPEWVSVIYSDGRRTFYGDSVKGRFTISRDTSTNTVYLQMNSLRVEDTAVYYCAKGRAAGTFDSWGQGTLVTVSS
VL: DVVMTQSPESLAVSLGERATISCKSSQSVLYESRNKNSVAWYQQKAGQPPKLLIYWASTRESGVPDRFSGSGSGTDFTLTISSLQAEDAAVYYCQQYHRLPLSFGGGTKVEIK

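The parent was found by panning a naive human phage display library on the peptide. The variants were designed computationally from a first round of random CDR variants and then made and measured. Their group label is 14L_GP_Gen (GP: Gaussian process model; Gen: genetic algorithm; a sequence that several methods proposed may carry one label only). AlphaSeq pools MATa yeast showing the antibodies with MATalpha yeast showing the peptide. Mating (16 h, 30 °C) was followed by selection of diploids and sequencing of their barcodes. The ratio of observed to expected reads was calibrated, replicate by replicate, on BCL2-family standards whose Kd was known from biolayer interferometry. Each pool was mated in six replicate cultures.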

Each variant is given by its three light chain CDRs, as the data file delimits them; those of the parent are KSSQSVLYESRNKNSVA, WASTRES, QQYHRLPLS.
The read-out is the apparent dissociation constant on a log10 scale (nM): the lower, the stronger.
"nd" marks a missing value. The strain was present, yet no cells mated with the target were sequenced in that replicate, which points to weak or no binding.
The range of this assay differs from that of the first round, and the authors advise against merging the two.

CDR-L1,CDR-L2,CDR-L3,"log10 Kd, replicates",empty controls
KQSQSWLYESRNKNSVA,NASQRES,QQYHRLPLS,-0.27 -0.18 -0.32 -0.17 -0.13 -0.10,0/18
KLSQSDGYESRNKNSVA,HASTRES,QQYHRLPLS,0.17 -0.10 -0.07 -0.34 -0.04 0.10,5/18 (2.92)
KLPQSFLYESRNKNSVA,NASQRES,QQYHRLPLS,-0.12 -0.32 -0.26 -0.46 -0.34 -0.23,1/18 (2.70)
KLQMSELYESRNKNSVA,NASTRES,QQYHRLPLS,-0.03 -0.08 -0.20 -0.14 -0.36 -0.15,1/18 (4.06)
KVSQSWLYESRNKNSVA,NASERES,QQYHRLPLS,0.39 0.03 0.12 -0.44 -0.13 0.10,0/18
KLQQSELYESRNKNSVA,NASQRCS,QQYHRLPLS,0.44 0.37 0.42 0.46 0.35 0.50,3/18 (2.60)
KLQQSVGYESRNKNSVA,DASTRES,QQYHRLPLS,0.70 0.88 0.52 0.70 0.74 0.96,0/18
KLSQSNLYESRNKNSVA,EASTRCS,QQYHRLPLS,0.11 -0.27 -0.02 -0.32 -0.09 0.23,1/18 (3.75)
KLSQSVLYESRNKNSVA,EASTRSS,QQYHRLPLS,0.08 -0.05 -0.04 -0.14 0.13 0.18,3/18 (2.26)
KLSQSNLYESRNKNSVA,NASYRES,QQYHRLPLS,0.49 0.17 0.42 0.46 0.20 0.40,1/18 (2.83)
KLPQSMLYESRNKNSVA,EASQRES,QQYHRLPLS,-0.14 -0.31 -0.26 -0.46 -0.46 -0.18,0/18
KLSQSMPYESRNKNSVA,NASTRMS,QQYHRLPLS,-0.06 -0.23 -0.32 -0.43 -0.24 -0.07,1/18 (4.37)
KVSQSNLYESRNKNSVA,NASTRES,QQYHRLPLS,0.35 0.18 -0.13 -0.47 -0.12 -0.12,0/18
KLSQSHLYESRNKNSVA,NASTRES,QDYHRLPLS,0.30 0.05 0.16 -0.16 0.24 -0.02,0/18
KLEWSMLYESRNKNSVA,NASTRES,QQYHRLPLS,0.50 0.37 0.55 0.14 0.20 0.25,1/18 (4.08)
KLQQSVLYESRNKNSVA,EASTRED,QQYHRLPLS,-0.19 -0.37 -0.35 -0.35 -0.49 -0.03,1/18 (2.51)
KLQQSWLYESRNKNSVA,NASTRES,QDYHRLPLS,-0.05 0.13 -0.24 -0.28 -0.16 -0.27,3/18 (3.15)
KVSQSHLYESRNKNQVA,EASTRES,QQYHRLPLS,0.44 0.44 0.07 0.02 0.56 0.35,1/18 (2.29)
KLSQSNLYESRNKNSVA,NASTRFS,QQYHRLPLS,0.53 0.44 0.10 0.09 0.03 0.51,1/18 (2.96)
KLSQQHLYESRNKNSVA,NASTRES,QQYHRLPLS,0.47 -0.06 0.16 0.22 0.25 0.31,0/18
KSEQSQLYESRNKNSVA,NASTRES,QQYHRLPLS,0.72 0.40 0.80 0.50 0.54 0.88,0/18
KLPQSHLYESRNKNSVA,HASTRES,QQYHRLPLS,0.85 0.27 0.03 -0.12 0.28 0.20,1/18 (3.77)
KMSQSWLYESRNKNSVA,NASTRMS,QQYHRLPLS,-0.37 -0.14 -0.30 -0.37 -0.17 -0.22,0/18
KLMQSMLYESRNKNSVA,NASTRMS,QQYHRLPLS,-0.02 0.25 -0.23 -0.17 -0.11 -0.08,1/18 (1.80)
KLPQSWWYESRNKNSVA,NASTRES,QQYHRLPLS,0.20 0.09 0.21 -0.05 0.18 0.40,0/18
KVSQSVLYESRNKNSVA,QASQRES,QQYHRLPLS,nd nd nd nd nd nd,0/18
KVSQSNLYESRNKNSVA,NASTREQ,QQYHRLPLS,-0.15 -0.07 -0.17 -0.27 -0.08 0.08,0/18
KLAQSVLYESRNKNSVA,QASTRES,QQYHRLPLS,-0.21 -0.27 -0.30 -0.66 -0.29 -0.31,1/18 (2.24)
KLPQSVLYESRNKNSVA,EASTRLS,QQYHRLPLS,-0.15 -0.40 -0.33 -0.48 -0.32 -0.22,2/18 (2.97)
KLSQSDLYESRNKNSVA,HASTRLS,QQYHRLPLS,0.35 0.27 0.20 0.28 0.26 0.28,2/18 (3.15)
KVSQSVLYESRNKNSVA,NASTRES,QSYHRLPLS,-0.10 -0.31 -0.30 -0.12 -0.33 -0.06,0/18
KMSQSVPYESRNKNSVA,NASQRES,QQYHRLPLS,-0.26 -0.35 -0.31 -0.46 -0.47 -0.17,2/18 (2.60)
KFEQSNLYESRNKNSVA,NASTRES,QQYHRLPLS,-0.14 -0.13 -0.04 -0.24 -0.31 0.09,0/18
KISQSVLYESRNKNNVA,EASTRES,QQYHRLPLS,-0.30 -0.39 -0.66 -0.63 -0.57 -0.25,2/18 (3.19)
HLSQSVLMESRNKNSVA,EASTRES,QQYHRLPLS,0.17 -0.14 -0.18 -0.28 -0.15 -0.13,0/18
KISQSELYESRNKNSVA,NASYRES,QQYHRLPLS,-0.30 -0.21 -0.21 -0.72 -0.23 0.79,0/18
KLPQSWLYESRNKNSVA,EASTRES,QQYHRLPLS,-0.04 -0.18 -0.10 -0.43 -0.15 0.01,1/18 (2.40)
KLEQSVLYESRNKNSVA,NASQRLS,QQYHRLPLS,0.05 -0.16 -0.12 -0.12 -0.29 -0.03,0/18
KVSQSEDYESRNKNSVA,NASTRES,QQYHRLPLS,-0.12 -0.07 -0.17 -0.26 -0.21 0.02,3/18 (2.33)
KLSQSVLYESRQKNSVA,NASQRLS,QQYHRLPLS,0.14 -0.03 -0.13 -0.16 -0.15 0.04,4/18 (3.15)
KLSQSVLGESRNKNSVA,EASTRES,QQYHRLPLS,0.60 0.65 0.84 0.92 0.99 0.89,2/18 (2.76)
KLSWSQLYESRNKNSVA,NASTRES,QQYHRLPLS,-0.22 -0.23 -0.38 -0.21 -0.24 -0.27,1/18 (2.65)
KLQQSVLYESRQKNSVA,NASQRES,QQYHRLPLS,0.66 0.41 0.39 0.08 0.40 0.51,1/18 (2.20)
KLSQSDLYESRNKNSVA,NASTREW,QQYHRLPLS,-0.07 -0.06 -0.12 -0.21 -0.09 -0.02,1/18 (2.29)
KLSQSQLYESRMKNSVA,NASTREM,QQYHRLPLS,0.10 0.21 0.26 -0.02 0.00 0.16,2/18 (2.53)
KLPQSWPYESRNKNSVA,NASTRES,QQYHRLPLS,-0.06 0.00 -0.29 -0.26 -0.14 -0.09,0/18
KVSQSELYESRNKNSVA,NASTREE,QQYHRLPLS,0.01 0.13 -0.14 -0.23 0.00 -0.16,0/18

7 of these entries, quoted again:

CDR-L1,CDR-L2,CDR-L3,"log10 Kd, replicates",empty controls
KLAQSVLYESRNKNSVA,QASTRES,QQYHRLPLS,-0.21 -0.27 -0.30 -0.66 -0.29 -0.31,1/18 (2.24)
KLPQSWWYESRNKNSVA,NASTRES,QQYHRLPLS,0.20 0.09 0.21 -0.05 0.18 0.40,0/18
KLQQSWLYESRNKNSVA,NASTRES,QDYHRLPLS,-0.05 0.13 -0.24 -0.28 -0.16 -0.27,3/18 (3.15)
KISQSELYESRNKNSVA,NASYRES,QQYHRLPLS,-0.30 -0.21 -0.21 -0.72 -0.23 0.79,0/18
KVSQSWLYESRNKNSVA,NASERES,QQYHRLPLS,0.39 0.03 0.12 -0.44 -0.13 0.10,0/18
KMSQSWLYESRNKNSVA,NASTRMS,QQYHRLPLS,-0.37 -0.14 -0.30 -0.37 -0.17 -0.22,0/18
HLSQSVLMESRNKNSVA,EASTRES,QQYHRLPLS,0.17 -0.14 -0.18 -0.28 -0.15 -0.13,0/18

Three control strains display no target. For all light chain designs, 4% of the pairings with them gave a signal, with a median of 2.64 and one signal in twenty below 1.59, so weak values seen in few replicates may be background. Also given: how often the same scFv was detected with the empty control strains, with their mean in brackets.
In the paper, a design with two or fewer of six values counts as a poor binder.